# Settings: 2.5 ppb = lowest calibration concentration; for ICP-MS Results (ppb) Glass vials (2% HNO3): glass vials extracted in 2% HNO3, 60° C.; for ICP-MS Results (ppb) Glass vials (2% HNO3) / ICP-MS Results (ppb) Stoppers (2% HNO3): ~24 h; for ICP-MS Results (ppb) Stoppers (2% HNO3): stoppers extracted in 2% HNO3, 60° C.; for ICP-MS Results (ppb) Stoppers (Reflux pH 3.4): refluxed aqueous solution pH 3.4
substance,measurement,value
Mercury,ICP-MS Results (ppb) Glass vials (2% HNO3),<2.5 ppb
same,ICP-MS Results (ppb) Stoppers (2% HNO3),<2.5 ppb
same,ICP-MS Results (ppb) Stoppers (Reflux pH 3.4),<2.5 ppb
Nickel,ICP-MS Results (ppb) Glass vials (2% HNO3),<2.5 ppb
same,ICP-MS Results (ppb) Stoppers (2% HNO3),<2.5 ppb
same,ICP-MS Results (ppb) Stoppers (Reflux pH 3.4),62.5 ppb

# Source: patent US11571398B1, “Compositions comprising ephedrine or an ephedrine salt and methods of making and using same” (Nexus Pharmaceuticals, Inc., priority 2019, dated 2023)
